Target: T1, Nucleotide-binding oligomerization domain-containing protein 1 (Homo sapiens, UniProt Q9Y239)
T1 sequence (Q9Y239 whole entry): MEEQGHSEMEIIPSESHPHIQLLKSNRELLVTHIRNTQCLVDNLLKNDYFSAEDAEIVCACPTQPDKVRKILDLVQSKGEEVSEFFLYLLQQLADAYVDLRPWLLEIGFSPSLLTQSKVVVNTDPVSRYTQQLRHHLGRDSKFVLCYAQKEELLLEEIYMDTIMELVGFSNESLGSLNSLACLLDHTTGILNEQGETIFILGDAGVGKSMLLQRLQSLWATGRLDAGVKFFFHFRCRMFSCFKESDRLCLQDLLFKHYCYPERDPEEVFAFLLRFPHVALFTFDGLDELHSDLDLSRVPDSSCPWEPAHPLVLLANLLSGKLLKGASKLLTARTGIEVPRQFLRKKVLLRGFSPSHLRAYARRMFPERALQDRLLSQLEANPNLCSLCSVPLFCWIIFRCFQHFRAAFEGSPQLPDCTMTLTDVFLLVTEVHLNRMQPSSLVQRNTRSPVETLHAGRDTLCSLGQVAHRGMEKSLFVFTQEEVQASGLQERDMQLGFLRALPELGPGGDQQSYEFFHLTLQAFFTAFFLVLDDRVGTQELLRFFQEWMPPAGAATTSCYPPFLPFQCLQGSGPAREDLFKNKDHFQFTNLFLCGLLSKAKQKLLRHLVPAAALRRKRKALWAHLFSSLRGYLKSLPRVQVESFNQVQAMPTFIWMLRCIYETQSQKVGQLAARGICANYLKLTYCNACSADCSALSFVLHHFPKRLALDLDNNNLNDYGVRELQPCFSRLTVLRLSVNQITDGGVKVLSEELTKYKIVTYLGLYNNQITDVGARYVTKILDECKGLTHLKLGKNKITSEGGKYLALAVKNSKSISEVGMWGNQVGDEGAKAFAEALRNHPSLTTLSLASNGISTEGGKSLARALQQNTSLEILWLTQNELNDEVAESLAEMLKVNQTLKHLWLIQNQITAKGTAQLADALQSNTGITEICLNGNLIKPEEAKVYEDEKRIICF
Assay: Inhibition of human NOD1 expressed in HEK-Blue hNOD1 cells coexpressing NF-kappaB-inducible SEAP reporter gene assessed as inhibition of NF-kappaB transcriptional activity by measuring decrease in SEAP activity preincubated for 30 mins followed by C12-iE-DAP addition and measured after 18 hrs by absorbance based spectrophotometric analysis
Format: cell-based

| Compound | IC50 [nM] |
| --- | --- |
| Cc1ccc(S(=O)(=O)n2c(N)nc3ccccc32)cc1 | 1830 |
| COc1cc2ncnc(Nc3ccc(F)c(O)c3)c2cc1OC | 81 |

Reference: ChEMBL document CHEMBL6092202, “4-Anilinoquinazoline Derivatives as the First Potent NOD1-RIPK2 Signaling Pathway Inhibitors at the Nanomolar Range” (J Med Chem, 2024)
